Reference: ChEMBL document CHEMBL3414532 (J Med Chem, 2015)

What was measured:
[1] = molecular target: Gag-Pol polyprotein (Moloney murine leukemia virus isolate Shinnick, UniProt P03355); test: Inhibition of Moloney murine leukemia virus reverse transcriptase polymerase activity using Td100/Pd18 DNA-DNA substrate incubated for 30 mins by fluorescence assay
[2] = Inhibition of Escherichia coli RNase H pre-incubated for 10 mins before HTS-1 RNA/DNA duplex substrate addition by fluorescence assay
In short: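 E. coli RNase H at 4 nM with 6 mM MgCl2 and inhibitor at 1, 7 or 30 μM (2% DMSO final) in 50 mM Tris pH 7.8, 50 mM NaCl. Preincubated 10 min at room temperature, then started with 100 nM HTS-1 (fluorescein/Dabcyl RNA/DNA duplex). Run 5 min at 37 °C, stopped with 33 mM EDTA, fluorescence read at 485/528 nm. IC50 taken at curve midpoint; duplicates, at least two independent experiments.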

[3] = Inhibition of Moloney murine leukemia virus reverse transcriptase associated RNase H pre-incubated for 10 mins before HTS-1 RNA/DNA duplex substrate addition by fluorescence assay
In short: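 Preincubated 10 min at room temperature, then started with 100 nM HTS-1 duplex. Run 15 min at 37 °C, quenched with 33 mM EDTA, fluorescence read at 485/528 nm. IC50 at curve midpoint; duplicates, at least two experiments.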

| Compound | IC50 [1] [µM] | IC50 [2] [µM] | IC50 [3] [µM] |
| --- | --- | --- | --- |
| N#Cc1ccc(-c2ccc(Cc3ccc4c(c3)CC(=O)N(O)C4=O)cc2)cc1 | 8.5 | – | – |
| CS(=O)(=O)c1ccc(-c2ccc(Cc3ccc4c(c3)CC(=O)N(O)C4=O)cc2)cc1 | 3.9 | – | – |
| O=C1Cc2cc(Cc3ccc(Cl)cc3)ccc2C(=O)N1O | 7.1 | 4.5 | – |
| O=C1Cc2cc(Cc3ccc(-c4ccc(F)cc4)cc3)ccc2C(=O)N1O | 11 | – | – |
| O=C1Cc2cc(Cc3ccc(-c4ccccc4)cc3)ccc2C(=O)N1O | 13 | – | – |
| O=C1Cc2cc(Cc3ccc(C(F)(F)F)cc3)ccc2C(=O)N1O | 6.9 | 7.2 | – |
| O=C1Cc2cc(Cc3ccc(-c4ccncc4)cc3)ccc2C(=O)N1O | 2.8 | – | – |
| O=C1Cc2cc(Cc3ccc(C4CC4)cc3)ccc2C(=O)N1O | 3.1 | 3.2 | – |
| COc1ccc(-c2ccc(Cc3ccc4c(c3)CC(=O)N(O)C4=O)cc2)cc1 | 11 | 3.1 | > 30 |
